Assay: in vitro

For `O=c1c(-c2ccc(O)cc2)coc2cc(O)cc(O)c12` [Genistein, 4′,5,7-trihydroxy-3-phenylchromen-4-on, reference compound], the CC50 at 24 h was > 100 µM.

— patent publication US20140107051A1, “ISOFLAVONES FOR TREATING MUCOPOLYSACCHARIDOSES” (INSTYTUT FARMACEUTYCZNY, priority 2005, published 2014)
